PubChem BioAssay AID488969 (Vanderbilt High Throughput Screening Facility, 2010)
The entries are a selection whose mix differs from that of the whole data set.

Sequences of proteins named here, by UniProt entry; tags and fusion partners are left off.
UniProt P70579, whole entry: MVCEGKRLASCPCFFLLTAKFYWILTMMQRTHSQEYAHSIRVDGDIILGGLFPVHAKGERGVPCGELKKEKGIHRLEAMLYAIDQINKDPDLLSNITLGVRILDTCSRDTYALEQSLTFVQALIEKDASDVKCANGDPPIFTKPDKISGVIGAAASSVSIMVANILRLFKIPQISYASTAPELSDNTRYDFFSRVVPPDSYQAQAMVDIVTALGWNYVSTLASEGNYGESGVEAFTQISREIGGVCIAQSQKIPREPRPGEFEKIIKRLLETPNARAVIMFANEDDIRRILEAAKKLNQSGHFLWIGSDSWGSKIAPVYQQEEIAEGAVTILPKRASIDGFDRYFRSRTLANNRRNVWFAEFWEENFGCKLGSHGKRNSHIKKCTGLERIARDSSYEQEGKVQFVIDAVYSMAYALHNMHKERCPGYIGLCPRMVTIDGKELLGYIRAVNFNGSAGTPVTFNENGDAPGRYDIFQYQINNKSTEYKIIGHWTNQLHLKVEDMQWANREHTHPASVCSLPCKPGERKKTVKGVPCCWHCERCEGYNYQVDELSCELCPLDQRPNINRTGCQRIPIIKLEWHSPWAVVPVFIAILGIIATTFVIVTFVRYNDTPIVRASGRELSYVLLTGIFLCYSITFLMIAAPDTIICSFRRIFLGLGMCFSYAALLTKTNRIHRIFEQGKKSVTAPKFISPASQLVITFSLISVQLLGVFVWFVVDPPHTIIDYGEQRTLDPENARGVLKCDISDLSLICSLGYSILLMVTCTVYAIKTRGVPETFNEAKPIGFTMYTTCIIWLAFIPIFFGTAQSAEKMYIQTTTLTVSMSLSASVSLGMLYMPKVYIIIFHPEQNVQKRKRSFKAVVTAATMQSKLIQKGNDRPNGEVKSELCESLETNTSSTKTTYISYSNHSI

Biological target: Metabotropic glutamate receptor 8 (Rattus norvegicus) (UniProt P70579)
Assay: mGluR8 Gi/Go-coupled signaling modulation – cell-based, rat, thallium flux, HTS, primary screen (AID 488969)
Settings: HEK293 rat mGluR8, GIRK (G protein-gated inwardly rectifying potassium channel) thallium flux, FluoZin2; at 10 µM; stronger effect = higher value; submaximal glutamate (EC20) added with thallium

Compound	z-score
c1ccc(CN2CCC(Nc3ccccc3)CC2)cc1	0.0633
N/C(=N\O)c1c(N)no[n+]1[O-]	0.312
CCOc1ncccc1C(=O)NCC1(N2CCOCC2)CCCCC1	-0.175
COc1ccc(NC2CCN(CCc3ccccc3)CC2)c(OC)c1	0.00491
O=C(OC1CN2CCC1CC2)C1c2ccccc2Oc2ccccc21 (stereo not given)	0.958
O=C(NCC1(N2CCOCC2)CCCCC1)c1cc2ccccc2o1	-0.0504
CN1CCC(Nc2cccc(F)c2)CC1	-0.174
O=C(NCC1(N2CCOCC2)CCCCC1)c1cc(=O)[nH]c2ccccc12	-0.0753
CN1CCN(CCOC(=O)C(O)(c2ccccc2)c2ccccc2)CC1	-0.0103
N#CC1(Nc2ccccc2)CCN(CCc2ccccc2)CC1	-0.444
